Results reported in patent publication US5840770A, “Method of killing tumor cells” (Hill Medical Corporation, priority 1997, dated 1998).

How the values were obtained:
[1] = tested on: cancer patients (lung, esophagus, liver, stomach); conditions: gradually-increased doses; cited from earlier work
mixed tumor types = conditions: occasional; midday insulin dose withheld

For insulin, the tolerability [1] is given as “generally well tolerated” and the hypoglycemia (mixed tumor types) is given as “hypoglycemia”.
